Measurements: US11007199B2, “Compositions and methods for ameliorating pain and reducing fever” (The Board of Supervisors of Louisiana State University and …, priority 2017, dated 2021)

Test system: CD-1 male mice
Test: Acetic acid-induced abdominal writhing assay
Assay type: in vivo

For `CC(=O)Nc1ccc(O)cc1` [ApAP, N-Acetyl-4-aminophenol, reference compound], the “number of writhes induced by injection of acetic acid” value (FIG. 8, vehicle only nearly 40) was 20 and the ED50 (Mus musculus, ip, read-out: calculated 50% effective dose (ED50) based on the writhing assay) was 68.6 mg/kg.
